# Values of other authors as cited in patent publication US9428458B2, “Substituted pyridoxine-lactam carboxylate-salts” (ALCOBRA LTD., priority 2008, dated 2016).
# By UniProt entry, the sequences of proteins in these tests, tags left out.
# UniProt P05181, whole entry, species assumed: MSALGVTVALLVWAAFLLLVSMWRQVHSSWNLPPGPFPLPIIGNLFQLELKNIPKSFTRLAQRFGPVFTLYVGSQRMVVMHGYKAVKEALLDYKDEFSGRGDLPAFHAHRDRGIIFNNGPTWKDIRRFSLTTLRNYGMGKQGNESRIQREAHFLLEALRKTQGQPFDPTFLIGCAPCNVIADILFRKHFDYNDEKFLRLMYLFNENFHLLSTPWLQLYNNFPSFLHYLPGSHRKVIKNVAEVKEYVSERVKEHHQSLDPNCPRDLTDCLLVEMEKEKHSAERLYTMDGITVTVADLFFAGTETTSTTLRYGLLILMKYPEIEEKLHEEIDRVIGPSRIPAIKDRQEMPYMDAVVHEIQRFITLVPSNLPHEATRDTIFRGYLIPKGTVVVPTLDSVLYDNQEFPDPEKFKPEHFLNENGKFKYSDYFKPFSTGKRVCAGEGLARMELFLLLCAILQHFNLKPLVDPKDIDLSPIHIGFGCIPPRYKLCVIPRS
# Target: cytochrome P450 2E1 (Homo sapiens, UniProt P05181)
substance,measurement,value
pyridoxine L-2-pyrrolidone-5-carboxylate [metadoxine],inhibition of expression and activation of alcohol-induced cytochrome P450 2E1,does not inhibit
